Source: ChEMBL document CHEMBL5532740, “Optimization of a Novel DEL Hit That Binds in the Cbl-b SH2 Domain and Blocks Substrate Binding” (ACS Med Chem Lett, 2024)

Test system: PBMC
Experiment: Induction of IL-2 production in human PBMC cells upto 50 uM preincubated for 30 mins followed by T-cell activation and measured after 24 hrs
Format: functional, cell-based
Conditions: time 24.5 hrs

With `COc1ccc2c(c1CC(=O)O)Oc1c(ccc(OC)c1CC(=O)N1[C@H](c3cc([N+](=O)[O-])cc(OC)c3OCC(=O)O)N(C)C(=O)[C@@H]1C)C2(C)C` the Activity was “inactive”.

Activity calls are given as the source filed them. The calls are words filed in the database; no cut-off is given here.
